# According to ChEMBL document CHEMBL1250451, “Mechanistic insights into a Ca2+-dependent family of alpha-mannosidases in a human gut symbiont” (Nat Chem Biol, 2010):
# B1: Alpha-1,2-mannosidase (BT_3991) (Bacteroides thetaiotaomicron), Q8A0N0 (protein)
# chain: MKLKTLLIGCFGGFIMLNSCTESPSVKDYSAYVNPFIGTGGHGHTFPGAVVPHGMIQPSPDTRIDGWDACSGYYYDDNTINGFSHTHVSGTGCCDYGDVLLMPTVGKPQYLTTDPESQKLAYASAFSHENETAEPGYYSVFLDTYQVKAEITATKRGAIHRYTFPESTESGFIIDLDYSLQRQTNYEMEIEVISDTEICGHKKTTYWAFDQYINFYAKFSKPFAYTLITDSVTMDNGKRLPVCKAVLHFNTKKDEEVLVKVGVSAVDIAGARKNVESEIPEWDFDKVRKDARTAWNNYLSKIDITTSDKEDKTIFYTALYHTAISPNLFTDADGRYLGMDLEVHQGDTINPLYTVFSLWDTFRALHPLMTIIDPNLNNQFINSLIRKHQEGGIYPMWDLASNYTGTMIGYHAVPVIVDAYMKGYRNFDAHEAYKASLRAAEYDTTGIKCPDLVLPHLMPKAKYYKNAIGYIPCDRENESVAKALEYAYDDWCISIFAEAMNDFENKAKYERFAKAYEFYFDKSTRFMRGLDSNGEWRTPFNPRASTHRSDDYCEGTAWQWTWFVPHDVEGLVKLMGGEDAFVEKLDSLFTVDSSLDGETTSADISGLIGQYAHGNEPSHHVIHLYNYVNRPWRTQELVDSVYRSQYANNVDGLSGNEDCGQMSAWYILNSMGFYQVCPGKPVYSIGRPAFDKAVINLPGEKTFSIVAKNNSKSNKYIESVLLNGKPLDTPFFGHQDIVAGGVMEIRMTDHPTQWGVRQ
# B2: Alpha-1,2-mannosidase (BT_1769) (Bacteroides thetaiotaomicron), Q8A6V7 (protein)
# chain: MKLTHILASAAIISTLSACNGSLQTADRTPVDYVNPYIGNISHLLVPTFPTIQLPNSMLRVYPERADYTSELLKGLPLIVTNHRERSAFNFSPYQGEKLRPVITYNYDNEHITPYSFDVELDDNRMKAEYALSHQSAIYRITYEADKPAYLIVNSRNGSIHANENFISGRQQLNDNTNVYVYIEAQEKPISAGILENGTIETSKDNAEGANACAAWRFADGTTTVNLRYGISFISEEQAEKNLHRELKDYNIKALAEAGRQIWNETLGRIQVEGGTEDDKTVFYSSFYRTFERPICMSEGGRYFSAFDGKVHEDNGTPFYTDDWIWDTYRAAHPLRTLIDQQKEEDIIASYLRMAEQMGNMWMPTFPEVTGDTRRMNSNHAVATVADALAKGLKVDTAKAYEACRKGIEEKTLAPWSGAPAGWLDNFYRENGYIPALRVDEPENDPNVHPFEKRQPVAVTLGTSYDQWCLSRIAQALNKKEEAEYYLKCSYNYRNLYNKETAFFHPKDKEGQWIEPFDYRFPGGMGAREYYGENNGWVYRWDVPHNVADLISLMGGNEQFIANLDRTFTEPLGRSKYAFYAKLPDHTGNVGQFSMANEPSLHVPYLYNYAGQPWKTQKRIRQMLKTWFRNDLMGIPGDEDGGGMTSFVVFSSLGFYPVTPGLPAYTIGSPLFTDAKIRLSNGAVFEIEAKNASTDNKYIQSATLNGKEWNKSWFSHDDLMSGGKLVLVMGNKPNKTWASGAEDVPPSLEIK
# B3: Alpha-1,2-mannosidase (BT_3858) (Bacteroides thetaiotaomicron), Q8A113 (protein)
# chain: MMMNRLNIKRTVGSCLMAMAFFSCTHTDQTPTKDFVDYVNPYIGNISHLLVPTYPTVHLPNSMLRVYPERGDYTSDRVNGLPVVVTSHRGSSAFNLSPVQGEVSRPIVSYSYDLENITPYSYSVYLDEADIQVEYAPSHQAGIYHISFGTEGDNALVVNTKNGKLVAEEKGVSGYQVIDNTPTKIYLYLETSQLPLRKGVLADGKVDMESKEGSAIALYYGSEKNLNLRYGISFISAEQAKKNLQRDITTYDVKAVADAGRRIWNKTLGKIVIEGGSEDEKEIFYTSLYRTYERMINLSEDGKYYSAFDGKIHEDGGVPFYTDDWIWDTYRATHPLRILIEPQKELDMIRSYIRMAEQSDRRWMPTFPEVTGDSHRMNGNHAVAVIWDAYCKGLKDFDLEAAYEACKGAITEKTLLPWLRCPLTELDKFYQEKGFFPALNPGEEETCKAVHSFERRQAVAVMLGNCYDNWCLAQIARTLNKTDDYKKFMRMSYTYRNVYNAETGFFHPKNKDGKFIEPFDYRYSGGQGARGYYGENNGWIYRWDVQHNPADLIALMGGQASFIERLNQTFNEPLGRSKFDFYHQLPDHTGNVGQFSMANEPCLHIPYLYNYAGQPWMTQKRIRVLLNQWFRNDLMGVPGDEDGGGMTAFVVFSMMGFYPVTPGSPTYNIGSPVFQSAKMEVGDGHYFEIIAENYAPDHKYIQSATLNGTPWNKPWFSHADIQNGGRLVLQMGDKPNKKWGIASDAVPPSSESLPE
# B4: Alpha-1,2-mannosidase (BT_1878) (Bacteroides thetaiotaomicron), Q8A6K3 (protein)
# chain: MIIMKRKSPVMAVALAGLFMYTSCSPTEQAETKDYTQYVNTFIGAADNGHTFPGACYPFGMIQTSPVTGAVGWRYCSEYTYQDSLIWGFTQTHLNGTGCMDLGDILVMPVTGTRARAWDAYRSHFPKDKEAATPGYYTVELSDPQVKAELTASIHAALHRYTYHKADSASLLIDLQHGPAWREEQYHSQVNSCEVNWEDAQTLAGHVNNTVWVDQDYFFVMKFNRPVIDSLYLPMGETEKGKRIIATFDLKPGDELMMKVALSTTSVEGAKKNLQAEIPDWNFDGVKLAAHDEWNSYLSRMDVEGTDDEKTNFYTCFYHALIQPNQISDVDGMYRNAADSIVKAGTGTFYSTFSLWDTYRAAHPFYTLMVPERVDDFVNSLIEQGEVQGFLPIWALWGKENFCMIGNHGVSVIAEAYRKGFRGFDAERAFNMVKKTQTVSHPLKSDWEVYTKYGYFPTDLTKAESVSSTLESVYDDYAAADMARRMGKEEDAAYFAKRADYYKNLFDSQTNFMRPRKADGTWKSPFNPSDVGHAESTGGDYTEGNAWQYTWHVQHDVPGLIALFGGEEPFLNKLDSLFTVKLETTQADVTGLIGQYAHGNEPSHHVTYLYALAGRPERTQELIREIFDTQYKNKPDGLCGNDDCGQMSAWYMFSAMGFYPVDPVSGDYVFGAPQLPKIVLHLADGKTFTVIAENLSKEHKYVDSITLNGEPYTKNTISHEDILKGGTLVYKMK
# B5: Alpha-1,2-mannosidase, putative (BT_3130) (Bacteroides thetaiotaomicron), Q8A325 (protein)
# chain: MKKLLLSVCAFSLTLATLQAGEITKYVNPFIGTGAIDGGLSGNNYPGATSPFGMIQLSPDTSEAPNWGDASGYDYNRNTIFGFSHTRLSGTGASDLIDITLMPTSSGRTSSAFTHDEEKARPGYYQVMLKDENINAELTTTQRNGIHRYQYPAGKDAEIILDMDHSADKGSWGRRIINSQIRILNDHAVEGYRIITGWAKLRKIYFYMEFSSPILTSTLRDGGRVHENTAVINGTNLHGCFRFGQLNGKPLTCKVALSSVSMENARQNMEQEAPHWDFDRYVAAADADWEKQLGKIEVKGTEVQKEIFYTALYHTMIQPNTMSDVNGEYMAADYTTRKVANNETHYTTFSLWDTFRASHPLYTLLEPERVTDFVKSMIRQYEYYGYLPIWQLWGQDNYCMIGNHSIPVITDAILKGIPGIDMEKAYEAVYNSSVTSHPNSPFEVWEKYGFMPENIQTQSVSITLEQAFDDWCVAQLAAKLNKDADYQRFHKRSEYYRNLFHPKTKFFQSKNDKGEWIEPFDPYQYGGNGGHPFTEGNAWQYFWYVPHNIQALMELTGGTKAFEQKLDTFFTSTYKSEQMNHNASGFVGQYAHGNEPSHHVAYLYNFAGQPWKTQKYVSHILNTLYNNTSSGYAGNDDCGQMSAWYVFSAMGFYPVNPADGRYIIGSPLLDECTLKLAGNKEFRIRTIRKSPEDIYIQSVTLNGKKHKDFFITHQDIMNGGTMVFKMGKKPSGWGK
# B6: Alpha-1,2-mannosidase, putative (BT_3773) (Bacteroides thetaiotaomicron), Q8A193 (protein)
# chain: MNAFKLLMAASCFLGLATSGVAKQDYSKSEGLLQYVDPYIGSGFHGHVFVGTSVPYGMVQLGPNNIHKGWDWCSGYHYSDSILIGFSHTHLSGTGCTDLGDILIMPLNEIRTPRGNQDDIRDGYASKYSHDNEIARPEYYSLILDRYNIKAELTATDRVGFHRYTYPEGKPVSILIDLREGNGSNAYDSYIRKVDDYTVEGYRYVRGWSPSRKVYFVLKSDQKIEKFTAYDDNTPKLWDQLKVESVKSVLTFGNVKEVKIKVAISSVSCDNAAMNLQAELSHWDFDKVVKMSSDRWNKQLDKMTVESDDEAAKRVFYTAHYHTMIAPTLYCDVNGEYRGMNDMIYTDPKKANYTTLSLWDTYRALNPLMTIIQPEMVDNVINSMLSIYRQQDKLPIWPLMSGETNCMPGYSSVPVIADAYLKGFTGFDAEEALTAMKATATYEGQNGVPYVMAKGYIPADKIHEATSIAMEYAVDDWGIAAMAQKMGKTADYETFSKRAHYYKNYFDSSIHFIRPKLEDGSWRTPYDPARSIHGVGDFCEGNGWQYTFFAPQDPYGLISLFGGDKPFTSKLDSFFTNNDSMGEGASSDITGLIGQYAHGNEPSHHIAYLYTYAGEQWKTAEKVRFIMSDFYTDQPDGIIGNEDCGQMSAWYLLSAMGFYQVNPSDGVFAFGSPRFKKIEVKVRGGKVFTVEAPNNSKDNIYIQKVYLNGKPYHKSYITYDDIINGSTLKFEMGKKPAKNFGKASANRPIVLNK
# How the values were obtained:
# Format in all cases: protein assay
# [1] = substrate: OC[C@H]1O[C@H](O[C@@H]2[C@H](O)[C@@H](O)O[C@H](CO)[C@H]2O)[C@@H](O)[C@@H](O)[C@@H]1O; experiment: Ratio of Kcat to Km for Bacteroides thetaiotaomicron GH92 alpha-mannosidase GH92 alpha-mannosidase 3991 assessed as mannose release after 16 hrs by HPLC
# [2] = substrate: OC[C@H]1O[C@H](O[C@@H]2[C@H](O)[C@@H](O)O[C@H](CO)[C@H]2O)[C@@H](O)[C@@H](O)[C@@H]1O; experiment: Activity of Bacteroides thetaiotaomicron GH92 alpha-mannosidase GH92 alpha-mannosidase 3991 assessed as mannose release after 16 hrs by HPLC
# [3] = substrate: OC[C@H]1O[C@H](O[C@@H]2[C@H](O)[C@@H](O)O[C@H](CO)[C@H]2O)[C@@H](O)[C@@H](O)[C@@H]1O; experiment: Activity of Bacteroides thetaiotaomicron GH92 alpha-mannosidase GH92 alpha-mannosidase 1769 assessed as mannose release after 16 hrs by HPLC
# [4] = substrate: OC[C@H]1O[C@H](O[C@@H]2[C@H](O)[C@@H](O)O[C@H](CO)[C@H]2O)[C@@H](O)[C@@H](O)[C@@H]1O; experiment: Ratio of Kcat to Km for Bacteroides thetaiotaomicron GH92 alpha-mannosidase GH92 alpha-mannosidase 1769 assessed as mannose release after 16 hrs by HPLC
# [5] = substrate: OC[C@H]1O[C@H](O[C@@H]2[C@H](O)[C@@H](O)O[C@H](CO)[C@H]2O)[C@@H](O)[C@@H](O)[C@@H]1O; experiment: Ratio of Kcat to Km for Bacteroides thetaiotaomicron GH92 alpha-mannosidase GH92 alpha-mannosidase 3858 assessed as mannose release after 16 hrs by HPLC
# [6] = substrate: OC[C@H]1O[C@H](O[C@@H]2[C@H](O)[C@@H](O)O[C@H](CO)[C@H]2O)[C@@H](O)[C@@H](O)[C@@H]1O; experiment: Activity of Bacteroides thetaiotaomicron GH92 alpha-mannosidase GH92 alpha-mannosidase 3858 assessed as mannose release after 16 hrs by HPLC
# [7] = substrate: OC[C@H]1O[C@H](O[C@@H]2[C@H](O)[C@@H](O)O[C@H](CO)[C@H]2O)[C@@H](O)[C@@H](O)[C@@H]1O; experiment: Activity of Bacteroides thetaiotaomicron GH92 alpha-mannosidase GH92 alpha-mannosidase 1878 assessed as mannose release after 16 hrs by HPLC
# [8] = substrate: OC[C@H]1O[C@H](O[C@@H]2[C@H](O)[C@@H](O)O[C@H](CO)[C@H]2O)[C@@H](O)[C@@H](O)[C@@H]1O; experiment: Ratio of Kcat to Km for Bacteroides thetaiotaomicron GH92 alpha-mannosidase GH92 alpha-mannosidase 1878 assessed as mannose release after 16 hrs by HPLC
# [9] = substrate: OC[C@H]1O[C@H](O[C@@H]2[C@H](O)[C@@H](O)O[C@H](CO)[C@H]2O)[C@@H](O)[C@@H](O)[C@@H]1O; experiment: Ratio of Kcat to Km for Bacteroides thetaiotaomicron GH92 alpha-mannosidase GH92 alpha-mannosidase 3130 assessed as mannose release after 16 hrs by HPLC
# [10] = substrate: OC[C@H]1O[C@H](O[C@@H]2[C@H](O)[C@@H](O)O[C@H](CO)[C@H]2O)[C@@H](O)[C@@H](O)[C@@H]1O; experiment: Ratio of Kcat to Km for Bacteroides thetaiotaomicron GH92 alpha-mannosidase GH92 alpha-mannosidase 3773 assessed as mannose release after 16 hrs by HPLC
# [11] = substrate: OC[C@H]1O[C@H](O[C@@H]2[C@H](O)[C@@H](O)O[C@H](CO)[C@H]2O)[C@@H](O)[C@@H](O)[C@@H]1O; experiment: Activity of Bacteroides thetaiotaomicron GH92 alpha-mannosidase GH92 alpha-mannosidase 3773 assessed as mannose release after 16 hrs by HPLC
protein,measurement,setting,value
B1,kcat/Km,[1],517 M⁻¹ s⁻¹
same,Km,[2],9000 µM
same,kcat,[2],4.67 s⁻¹
B2,Km,[3],1300 µM
same,kcat,[3],63.3 s⁻¹
same,kcat/Km,[4],48300 M⁻¹ s⁻¹
B3,kcat/Km,[5],28300 M⁻¹ s⁻¹
same,Km,[6],1400 µM
same,kcat,[6],40 s⁻¹
B4,Km,[7],2000 µM
same,kcat,[7],0.283 s⁻¹
same,kcat/Km,[8],140 M⁻¹ s⁻¹
B5,kcat/Km,[9],3.33 M⁻¹ s⁻¹
B6,kcat/Km,[10],7.5 M⁻¹ s⁻¹
same,Km,[11],2500 µM
same,kcat,[11],0.0183 s⁻¹
